Earlier results on one substance are cited in US20090017108A1, “Liposome compositions for treatment of hepatitis C” (priority 2007, published 2009).

The series relates to hepatitis C. Conditions: six months after treatment was discontinued; 24 weeks of treatment; interferon alpha-2b 3 million units three times a week, oral ribavirin 1.0 g to 1.2 g daily or placebo.

In the case of interferon alpha-2b, the “subjects with undetectable serum viral RNA” value is on record as 4.7%.
